The values that follow are results of earlier work, collected in PMC10433104 (Journal of medicinal chemistry, 2023).

Chains of the proteins cited; added tags and fusions are not shown. Residues count along the entry.
UniProt Q08499, 1-748 isoform Q08499-11 S129D, species assumed: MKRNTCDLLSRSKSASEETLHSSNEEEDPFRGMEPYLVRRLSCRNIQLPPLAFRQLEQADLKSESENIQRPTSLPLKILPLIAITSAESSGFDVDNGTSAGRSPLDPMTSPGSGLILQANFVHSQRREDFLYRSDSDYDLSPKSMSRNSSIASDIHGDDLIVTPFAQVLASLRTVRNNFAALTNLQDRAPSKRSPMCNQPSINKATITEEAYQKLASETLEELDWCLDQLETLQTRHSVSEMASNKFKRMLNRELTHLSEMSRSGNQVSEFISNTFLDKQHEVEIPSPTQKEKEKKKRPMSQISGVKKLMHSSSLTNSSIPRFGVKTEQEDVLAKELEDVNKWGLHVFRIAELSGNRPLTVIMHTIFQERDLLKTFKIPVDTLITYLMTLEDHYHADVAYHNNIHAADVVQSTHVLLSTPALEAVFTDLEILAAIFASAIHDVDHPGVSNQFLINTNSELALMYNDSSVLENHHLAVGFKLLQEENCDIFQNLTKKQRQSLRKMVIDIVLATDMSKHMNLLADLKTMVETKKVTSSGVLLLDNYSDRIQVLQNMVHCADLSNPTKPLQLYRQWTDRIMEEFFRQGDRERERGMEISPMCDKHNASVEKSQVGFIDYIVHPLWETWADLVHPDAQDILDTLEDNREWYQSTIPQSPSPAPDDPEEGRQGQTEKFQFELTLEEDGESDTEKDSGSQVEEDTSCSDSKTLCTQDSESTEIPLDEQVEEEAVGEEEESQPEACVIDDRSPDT

This data set has as its target PDE4D7-S129D (PDE4D*) (Homo sapiens, UniProt Q08499, S190D). To be noted: read-out: PDE4D* IC50, assay result adopted from ref 22; cited from earlier work.
What is called IC50 is the concentration that inhibits the measured activity by half. Consider `COc1ccc(Cc2cn[nH]c2)nc1-c1cccc([N+](=O)[O-])c1` [Compound 1], for which the IC50 was 3.5 nM. For `COc1ccc(Cc2ccncc2)nc1-c1cccc([N+](=O)[O-])c1` [Compound 27], the IC50 is 2.8 nM. `COc1ccc(Cc2ccncc2)nc1-c1cccc(Cl)c1` [Compound 28]: the IC50 is 5.1 nM.
